## Measured affinities in a library of Ab-91 heavy chain variants

Antigen: PDVDLGDISGINAS, a 14-residue peptide of the SARS-CoV-2 spike HR2 region.

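In library AAYL51, one, two or three CDR residues were substituted; doubles and triples were drawn at random. The assay is AlphaSeq: two haploid yeast populations carry antibody and antigen on their surface. The frequency of each diploid, read from paired DNA barcodes, reflects how well the two displayed proteins bind. Each replicate has its own calibration line, from reference interactions of the BCL2 family. Each pool was mated in three replicate cultures.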

Parent: Ab-91, a human scFv built as VL, a 15-residue (Gly4Ser)3 linker, VH. Only the CDRs of the heavy chain vary.
VL: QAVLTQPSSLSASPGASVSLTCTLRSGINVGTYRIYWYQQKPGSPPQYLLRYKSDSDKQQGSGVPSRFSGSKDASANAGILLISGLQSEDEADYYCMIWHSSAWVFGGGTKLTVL
VH: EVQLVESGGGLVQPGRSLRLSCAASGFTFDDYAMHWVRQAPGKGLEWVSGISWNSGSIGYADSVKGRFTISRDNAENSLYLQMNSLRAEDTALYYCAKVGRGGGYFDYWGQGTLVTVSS

Substitutions are numbered in sequence along the VH above, starting at 1 (not Kabat).
Numbers give log10(Kd / nM), so 0 is 1 nM and 3 is 1 µM. Smaller is tighter.
A mean of the replicates is given; it leaves out those without a signal.
"nd" marks a missing value. The strain was present, yet no cells mated with the target were sequenced in that replicate, which points to weak or no binding.
Parent in this assay: reference entry 1.86, copy in this library 0.88.

With S63C/G100A the result was 4.63, 4.01, 3.75 (mean 4.13; controls 4 of 9).
With G56F/Y60T/D62M the result was 4.27, nd, nd (controls 2 of 9).
With H35W/S55C the result was nd, 5.47, nd (controls 1 of 9).
With A33Q/G56W/V99C the result was nd, nd, nd (controls 0 of 9).
With Y60I the result was 4.01, nd, nd (controls 2 of 9).
With F27M/A61M the result was nd, nd, nd (controls 2 of 9).
With Y32P/W53G/G104E the result was 4.21, 4.13, nd (mean 4.17; controls 0 of 9).
With G26R/T28W/S57G the result was 6.51, 6.00, nd (mean 6.25; controls 5 of 9).
With S52P/S63W/Y108N the result was 4.63, nd, nd (controls 3 of 9).
With G26D/F27W/G102D the result was nd, nd, nd (controls 0 of 9).
With I58D/V64Y the result was 4.54, 6.03, nd (mean 5.29; controls 2 of 9).
With A33Q/V64N/V99S the result was nd, nd, 4.47 (controls 4 of 9).
With A61S the result was nd, nd, nd (controls 0 of 9).
With H35D/I58A/Y60M the result was 4.50, 6.17, 4.25 (mean 4.97; controls 6 of 9).
With T28L/G50Y/S57C the result was nd, nd, nd (controls 0 of 9).
With F29G/G59D/V64Y the result was 5.82, nd, nd (controls 1 of 9).
With D30N/A33Y/Y108P the result was nd, nd, nd (controls 1 of 9).
With F27D/D31M/G102Y the result was nd, nd, nd (controls 0 of 9).
With A61N/D62L/F106M the result was nd, nd, nd (controls 0 of 9).
With T28S/D30C/G102K the result was nd, nd, 4.25 (controls 1 of 9).
With F27V/D30I/V64N the result was 4.63, nd, nd (controls 1 of 9).
With R101D/Y105V/Y108R the result was 2.34, 2.78, 2.16 (mean 2.43; controls 6 of 9).
With G59W/A61L/G102W the result was nd, 5.93, nd (controls 2 of 9).
With H35D/N54F the result was nd, nd, nd (controls 2 of 9).
With A61R/R101W/G102T the result was nd, nd, nd (controls 0 of 9).
With D62M/Y105R the result was nd, nd, nd (controls 2 of 9).
With G56L/S63N/Y105I the result was 2.50, 2.63, 2.37 (mean 2.50; controls 2 of 9).
With I51W/V99P/G104W the result was nd, nd, nd (controls 0 of 9).
With D30L/D31H/S63D the result was 1.66, 1.75, 1.38 (mean 1.60; controls 1 of 9).
With D30P/W53Q/G102N the result was nd, nd, nd (controls 2 of 9).
With H35R/W53V/I58G the result was nd, nd, nd (controls 2 of 9).
With S63I/R101K/Y105W the result was 5.26, 4.42, 3.51 (mean 4.40; controls 0 of 9).
With F27H/G56N/Y60A the result was nd, nd, nd (controls 0 of 9).
With A61P/V64S/G103W the result was nd, nd, nd (controls 0 of 9).
With Y32P/G56F/A61C the result was nd, 5.48, nd (controls 3 of 9).
With Y32K/H35T/N54F the result was 5.09, nd, nd (controls 2 of 9).
With A33I/S63A/G104A the result was nd, 5.17, nd (controls 5 of 9).
With G56N/Y60I/S63I the result was 5.50, 4.19, nd (mean 4.84; controls 0 of 9).
With D30H/V64T/K65G the result was nd, nd, nd (controls 0 of 9).
With F27L/W53C/F106W the result was 3.52, 4.35, 2.85 (mean 3.58; controls 0 of 9).
With I51Q/Y60H/Y105R the result was nd, nd, nd (controls 0 of 9).

2 of these entries, quoted again:

changes	log10 Kd (nM) by replicate	log10 Kd (nM), mean	control signals
F27D/D31M/G102Y	nd, nd, nd	nd	0 of 9
D30H/V64T/K65G	nd, nd, nd	nd	0 of 9

Nonspecific signal, from three strains lacking the peptide, appeared in 21% of pairings of library AAYL51, centred on 4.54 (5% of these signals below 3.26); values are not corrected for it. For each scFv, signals with the empty controls are counted beside the result.

From the AlphaSeq antibody data of Engelhart et al. 2022 (doi:10.1038/s41597-022-01779-4), copy in the FLAb collection.